Experimental data taken from patent publication US9005670B2, “Use of histone acetyltransferase inhibitors as novel anti-cancer therapies” (The Johns Hopkins University, priority 2010, dated 2015).

Amino acid sequences for entries named in this document (tags omitted). Chains listed by the source or under a name are the forms on record and can include a tag or linker. Residues count along the entry.
UniProt Q09472, with tags, fused parts or gaps DEL1529-1560/M1652G limits assumed: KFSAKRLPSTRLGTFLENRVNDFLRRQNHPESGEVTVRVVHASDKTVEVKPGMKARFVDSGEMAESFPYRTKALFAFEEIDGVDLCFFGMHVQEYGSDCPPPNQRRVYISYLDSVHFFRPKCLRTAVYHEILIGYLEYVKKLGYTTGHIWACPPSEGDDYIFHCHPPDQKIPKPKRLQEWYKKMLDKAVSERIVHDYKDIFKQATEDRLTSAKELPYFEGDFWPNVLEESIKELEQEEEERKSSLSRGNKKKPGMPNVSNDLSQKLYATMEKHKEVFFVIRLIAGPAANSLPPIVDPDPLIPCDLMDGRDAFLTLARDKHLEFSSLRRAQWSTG
UniProt Q92831, 493-658 limits assumed: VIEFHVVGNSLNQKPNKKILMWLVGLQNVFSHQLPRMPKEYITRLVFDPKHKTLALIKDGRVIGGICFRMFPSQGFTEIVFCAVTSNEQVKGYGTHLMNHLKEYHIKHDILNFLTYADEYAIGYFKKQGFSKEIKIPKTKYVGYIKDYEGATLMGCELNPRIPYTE
UniProt Q29495, whole entry: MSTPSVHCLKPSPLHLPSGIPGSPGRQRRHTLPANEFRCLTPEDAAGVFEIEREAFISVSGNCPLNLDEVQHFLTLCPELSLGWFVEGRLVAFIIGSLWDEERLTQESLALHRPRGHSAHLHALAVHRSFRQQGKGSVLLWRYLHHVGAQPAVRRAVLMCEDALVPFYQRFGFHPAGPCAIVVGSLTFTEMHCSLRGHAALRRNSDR

Assays:
Assay type in all cases: biochemical
p300 HAT [1] = target: T1, p300 HAT (Homo sapiens, UniProt Q09472, DEL1529-1560/M1652G); experiment: coupled spectrophotometric p300 HAT assay; settings: for Percent inhibition of acetyltransferase, p300: 10 μM compound; for % inhibition with 2x coupling enz: 0.2 units α-KGDH (two times); for % inhibition in initial screen: compounds at 100 μM
[2] = target: PCAF (p300/CBP-associated factor) (Homo sapiens, UniProt Q92831); experiment: PCAF coupled spectrophotometric assay; settings: 10 μM compound
[3] = target: AANAT (arylalkylamine N-acetyltransferase) (Ovis aries, UniProt Q29495); experiment: AANAT coupled spectrophotometric assay; settings: 10 μM compound
p300 HAT [4] = target: T1, p300 HAT; experiment: direct radioactive p300 HAT assay (14C-acetyl-CoA transfer to H4-15)

| Percent inhibition of acetyltransferase, p300 (p300 HAT [1]) [%] | % inhibition with 2x coupling enz (p300 HAT [1]) [%] | % inhibition in initial screen (p300 HAT [1]) [%] | Percent inhibition of acetyltransferase, PCAF [2] [%] | Percent inhibition of acetyltransferase, AANAT [3] [%] | % inhibition at 25 uM in radioactive assay (p300 HAT [4]) [%] | SMILES |
| --- | --- | --- | --- | --- | --- | --- |
| 87 | 47.5 | 43.6 | >95 | <10 | 77.7 | O=C(O)c1ccc(O)c(/C=N/c2ccc3oc(-c4cccc(I)c4)nc3c2)c1 |
| 79 | 67.3 | 78.8 | – | 73 | 90.9 | Cc1ccc(NC(=O)CN2C(=O)S/C(=C\c3ccc(-c4ccc(C(=O)O)c(Cl)c4)o3)C2=O)cc1 |
